In this assay the target is T1, glucocorticoid receptor (Rattus norvegicus, UniProt P06536).
T1 construct: gene Nr3c1; native receptor in R3230AC tumour cytosol (8-9 S component)
T1 sequence (P06536 1-795): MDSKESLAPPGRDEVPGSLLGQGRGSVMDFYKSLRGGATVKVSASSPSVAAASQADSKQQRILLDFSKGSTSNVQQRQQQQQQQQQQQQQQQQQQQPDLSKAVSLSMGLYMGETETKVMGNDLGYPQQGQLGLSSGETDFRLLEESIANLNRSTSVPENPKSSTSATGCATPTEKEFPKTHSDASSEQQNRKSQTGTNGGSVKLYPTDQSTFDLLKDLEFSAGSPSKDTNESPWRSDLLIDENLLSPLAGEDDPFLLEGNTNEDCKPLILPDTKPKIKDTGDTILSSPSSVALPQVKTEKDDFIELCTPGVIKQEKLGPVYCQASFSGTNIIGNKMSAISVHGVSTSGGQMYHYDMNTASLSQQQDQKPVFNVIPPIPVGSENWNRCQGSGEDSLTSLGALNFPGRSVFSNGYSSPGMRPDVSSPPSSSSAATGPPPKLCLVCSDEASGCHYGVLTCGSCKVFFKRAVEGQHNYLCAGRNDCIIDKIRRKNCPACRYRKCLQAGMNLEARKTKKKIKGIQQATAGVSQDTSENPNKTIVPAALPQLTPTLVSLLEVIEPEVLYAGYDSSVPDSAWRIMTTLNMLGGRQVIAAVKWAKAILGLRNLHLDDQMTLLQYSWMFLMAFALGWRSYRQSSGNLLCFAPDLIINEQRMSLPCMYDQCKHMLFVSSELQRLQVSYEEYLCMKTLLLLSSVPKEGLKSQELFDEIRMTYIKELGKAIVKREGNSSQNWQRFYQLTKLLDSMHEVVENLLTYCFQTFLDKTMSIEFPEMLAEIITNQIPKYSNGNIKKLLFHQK
The assay is described as follows: competition with [3H]-triamcinolone acetonide, sucrose gradient centrifugation. The conditions noted are these: read-out: % [3H]-triamcinolone acetonide bound at 1 umol/l.

Consider one molecule from PMC2008813 (British Journal of Cancer, 1973).

Consider `C[C@]12CCC(=O)C=C1CC[C@@H]1[C@@H]2[C@@H](O)C[C@@]2(C)[C@H]1CC[C@]2(O)C(=O)CO` [Hydrocortisone], for which the activity at 1 µM stood at 41%.
